Results published in US10358436B2, “Kinase inhibitors and method of treating cancer” (University Health Network, priority 2010, dated 2019).
Read-outs that look alike come from different tables or passages of the source.

Protein sequences, listed by entry. Tags and fused reporters are not part of them. Lines headed by an entry give the natural chain unless they say otherwise; changes in a name come on top. Residues count along the entry.
UniProt P07948: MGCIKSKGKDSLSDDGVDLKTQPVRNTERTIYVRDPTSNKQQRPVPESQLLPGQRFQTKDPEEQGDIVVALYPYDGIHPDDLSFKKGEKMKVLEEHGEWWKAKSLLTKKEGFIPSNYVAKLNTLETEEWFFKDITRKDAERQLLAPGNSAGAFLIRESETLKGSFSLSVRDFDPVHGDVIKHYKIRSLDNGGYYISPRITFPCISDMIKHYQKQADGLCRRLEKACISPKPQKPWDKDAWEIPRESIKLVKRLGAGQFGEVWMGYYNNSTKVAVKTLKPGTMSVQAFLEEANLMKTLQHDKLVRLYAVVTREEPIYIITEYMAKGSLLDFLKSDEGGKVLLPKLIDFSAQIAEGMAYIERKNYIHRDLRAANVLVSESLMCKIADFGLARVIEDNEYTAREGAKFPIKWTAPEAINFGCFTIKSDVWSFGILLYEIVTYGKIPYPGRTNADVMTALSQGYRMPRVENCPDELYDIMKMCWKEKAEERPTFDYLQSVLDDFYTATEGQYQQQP
UniProt P00519, whole entry: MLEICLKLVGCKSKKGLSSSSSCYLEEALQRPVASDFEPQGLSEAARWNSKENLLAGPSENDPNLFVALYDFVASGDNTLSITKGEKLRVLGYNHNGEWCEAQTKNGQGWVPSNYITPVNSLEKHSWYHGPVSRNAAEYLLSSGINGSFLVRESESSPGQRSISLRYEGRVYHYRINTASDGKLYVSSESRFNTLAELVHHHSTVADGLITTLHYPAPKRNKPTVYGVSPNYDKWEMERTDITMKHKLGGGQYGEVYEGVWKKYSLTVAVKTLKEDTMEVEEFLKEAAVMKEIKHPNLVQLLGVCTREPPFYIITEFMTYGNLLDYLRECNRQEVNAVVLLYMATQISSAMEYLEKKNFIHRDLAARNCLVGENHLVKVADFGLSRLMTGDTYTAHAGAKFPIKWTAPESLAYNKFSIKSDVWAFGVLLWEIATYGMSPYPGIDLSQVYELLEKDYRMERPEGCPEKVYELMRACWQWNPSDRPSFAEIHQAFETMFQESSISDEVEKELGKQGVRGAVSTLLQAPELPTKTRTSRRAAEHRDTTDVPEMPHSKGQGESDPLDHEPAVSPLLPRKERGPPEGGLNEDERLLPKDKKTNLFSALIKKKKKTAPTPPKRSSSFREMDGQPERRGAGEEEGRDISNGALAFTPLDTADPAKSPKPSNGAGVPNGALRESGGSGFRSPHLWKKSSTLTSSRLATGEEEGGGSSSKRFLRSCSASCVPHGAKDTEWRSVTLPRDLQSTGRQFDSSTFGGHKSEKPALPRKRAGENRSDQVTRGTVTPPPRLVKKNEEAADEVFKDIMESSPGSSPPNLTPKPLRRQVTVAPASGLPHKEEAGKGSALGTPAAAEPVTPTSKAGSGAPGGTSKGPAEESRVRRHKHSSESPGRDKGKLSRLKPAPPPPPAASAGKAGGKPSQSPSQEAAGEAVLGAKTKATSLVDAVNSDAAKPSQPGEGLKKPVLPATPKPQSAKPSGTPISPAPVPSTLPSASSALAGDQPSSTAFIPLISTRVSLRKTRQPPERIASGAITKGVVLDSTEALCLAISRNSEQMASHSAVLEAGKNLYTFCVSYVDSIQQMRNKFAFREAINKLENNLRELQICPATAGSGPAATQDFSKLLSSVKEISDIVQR
UniProt Q16539, whole entry: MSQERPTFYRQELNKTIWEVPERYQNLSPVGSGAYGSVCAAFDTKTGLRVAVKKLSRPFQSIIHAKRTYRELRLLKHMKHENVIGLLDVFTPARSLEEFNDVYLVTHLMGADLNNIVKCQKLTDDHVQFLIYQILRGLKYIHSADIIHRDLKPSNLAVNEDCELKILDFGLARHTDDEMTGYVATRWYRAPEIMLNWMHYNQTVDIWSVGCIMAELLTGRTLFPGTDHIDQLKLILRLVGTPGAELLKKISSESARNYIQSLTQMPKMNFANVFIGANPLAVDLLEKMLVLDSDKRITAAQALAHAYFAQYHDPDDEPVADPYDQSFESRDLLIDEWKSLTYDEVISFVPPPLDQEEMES
UniProt P06239: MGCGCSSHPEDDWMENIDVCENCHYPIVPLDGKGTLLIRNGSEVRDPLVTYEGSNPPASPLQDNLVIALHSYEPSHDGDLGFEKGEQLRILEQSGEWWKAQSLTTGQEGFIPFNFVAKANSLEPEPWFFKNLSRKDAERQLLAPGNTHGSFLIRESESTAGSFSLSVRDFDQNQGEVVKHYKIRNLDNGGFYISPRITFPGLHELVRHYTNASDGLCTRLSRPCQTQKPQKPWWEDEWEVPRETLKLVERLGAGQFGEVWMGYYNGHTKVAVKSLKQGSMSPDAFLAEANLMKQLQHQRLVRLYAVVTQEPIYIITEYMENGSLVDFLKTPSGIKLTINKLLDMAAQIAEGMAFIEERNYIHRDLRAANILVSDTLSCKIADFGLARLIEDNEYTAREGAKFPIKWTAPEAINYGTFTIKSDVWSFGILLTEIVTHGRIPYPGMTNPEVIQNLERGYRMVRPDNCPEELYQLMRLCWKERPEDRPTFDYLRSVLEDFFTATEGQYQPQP
UniProt P05771, whole entry: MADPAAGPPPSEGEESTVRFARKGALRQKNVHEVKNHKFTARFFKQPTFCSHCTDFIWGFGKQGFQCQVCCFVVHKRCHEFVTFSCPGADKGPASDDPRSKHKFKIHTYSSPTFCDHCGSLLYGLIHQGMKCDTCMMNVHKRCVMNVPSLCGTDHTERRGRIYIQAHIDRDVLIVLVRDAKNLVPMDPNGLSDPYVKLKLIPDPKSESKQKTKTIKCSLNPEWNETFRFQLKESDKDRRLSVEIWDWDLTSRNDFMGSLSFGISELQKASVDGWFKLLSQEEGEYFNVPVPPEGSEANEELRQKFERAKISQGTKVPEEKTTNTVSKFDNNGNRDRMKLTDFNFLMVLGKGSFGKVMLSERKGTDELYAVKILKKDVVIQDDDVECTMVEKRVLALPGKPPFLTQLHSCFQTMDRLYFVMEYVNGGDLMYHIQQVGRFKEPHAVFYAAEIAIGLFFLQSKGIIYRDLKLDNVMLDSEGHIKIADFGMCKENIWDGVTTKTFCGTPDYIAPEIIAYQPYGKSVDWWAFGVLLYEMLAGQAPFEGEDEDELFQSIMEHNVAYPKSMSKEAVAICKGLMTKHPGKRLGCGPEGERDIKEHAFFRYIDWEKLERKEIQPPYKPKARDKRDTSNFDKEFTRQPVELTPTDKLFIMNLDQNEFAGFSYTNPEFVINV
UniProt P04629, 33-796: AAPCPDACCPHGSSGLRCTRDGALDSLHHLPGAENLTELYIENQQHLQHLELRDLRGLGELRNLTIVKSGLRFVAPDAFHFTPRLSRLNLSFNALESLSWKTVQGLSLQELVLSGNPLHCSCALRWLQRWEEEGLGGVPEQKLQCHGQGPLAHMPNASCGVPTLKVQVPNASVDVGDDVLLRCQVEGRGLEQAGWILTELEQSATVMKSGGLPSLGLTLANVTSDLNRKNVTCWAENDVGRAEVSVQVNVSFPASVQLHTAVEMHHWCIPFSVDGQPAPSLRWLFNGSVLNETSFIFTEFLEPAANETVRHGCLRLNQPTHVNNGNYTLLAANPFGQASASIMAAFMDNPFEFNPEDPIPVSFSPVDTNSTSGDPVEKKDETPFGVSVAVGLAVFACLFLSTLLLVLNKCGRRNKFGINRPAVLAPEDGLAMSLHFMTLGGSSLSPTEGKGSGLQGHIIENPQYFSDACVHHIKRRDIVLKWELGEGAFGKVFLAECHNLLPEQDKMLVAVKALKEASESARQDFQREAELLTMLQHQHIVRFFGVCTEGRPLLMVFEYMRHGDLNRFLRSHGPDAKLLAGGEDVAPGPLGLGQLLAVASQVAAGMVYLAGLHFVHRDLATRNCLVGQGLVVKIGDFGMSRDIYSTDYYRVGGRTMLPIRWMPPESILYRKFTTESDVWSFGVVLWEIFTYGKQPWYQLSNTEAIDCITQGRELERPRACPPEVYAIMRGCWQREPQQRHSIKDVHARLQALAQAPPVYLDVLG
UniProt P17948, 27-1338: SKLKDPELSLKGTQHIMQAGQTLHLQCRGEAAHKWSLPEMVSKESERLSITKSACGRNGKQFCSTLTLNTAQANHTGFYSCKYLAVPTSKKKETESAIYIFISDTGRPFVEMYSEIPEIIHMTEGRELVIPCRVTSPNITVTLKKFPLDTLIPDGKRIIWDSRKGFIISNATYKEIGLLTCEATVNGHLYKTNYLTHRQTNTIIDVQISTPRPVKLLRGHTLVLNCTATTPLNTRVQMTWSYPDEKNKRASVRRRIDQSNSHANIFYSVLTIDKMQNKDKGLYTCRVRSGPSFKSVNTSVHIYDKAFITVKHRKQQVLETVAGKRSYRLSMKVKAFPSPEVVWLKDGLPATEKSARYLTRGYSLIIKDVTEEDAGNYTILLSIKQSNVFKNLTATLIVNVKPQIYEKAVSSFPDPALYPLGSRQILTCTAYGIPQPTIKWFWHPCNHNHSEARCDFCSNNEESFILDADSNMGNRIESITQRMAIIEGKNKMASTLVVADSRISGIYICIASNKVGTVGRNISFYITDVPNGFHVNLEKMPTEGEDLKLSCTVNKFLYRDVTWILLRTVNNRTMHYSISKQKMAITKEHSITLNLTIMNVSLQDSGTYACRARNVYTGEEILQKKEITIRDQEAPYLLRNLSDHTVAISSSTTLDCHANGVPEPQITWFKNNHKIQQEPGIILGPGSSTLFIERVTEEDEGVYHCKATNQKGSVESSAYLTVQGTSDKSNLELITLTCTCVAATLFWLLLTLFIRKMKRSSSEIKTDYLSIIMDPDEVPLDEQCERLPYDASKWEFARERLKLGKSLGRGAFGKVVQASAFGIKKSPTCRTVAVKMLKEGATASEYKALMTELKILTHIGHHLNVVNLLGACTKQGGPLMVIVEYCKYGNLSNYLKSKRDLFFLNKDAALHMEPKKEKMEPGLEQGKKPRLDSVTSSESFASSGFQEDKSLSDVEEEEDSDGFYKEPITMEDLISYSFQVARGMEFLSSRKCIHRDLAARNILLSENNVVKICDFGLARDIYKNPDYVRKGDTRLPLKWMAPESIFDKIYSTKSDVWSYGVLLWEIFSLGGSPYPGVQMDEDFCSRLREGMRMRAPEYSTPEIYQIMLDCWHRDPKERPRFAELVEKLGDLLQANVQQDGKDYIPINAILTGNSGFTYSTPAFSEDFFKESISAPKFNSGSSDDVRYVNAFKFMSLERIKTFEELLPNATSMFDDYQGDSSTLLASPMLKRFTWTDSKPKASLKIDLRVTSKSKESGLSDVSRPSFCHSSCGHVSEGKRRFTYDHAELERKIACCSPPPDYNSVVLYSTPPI
UniProt P08069, 31-1367: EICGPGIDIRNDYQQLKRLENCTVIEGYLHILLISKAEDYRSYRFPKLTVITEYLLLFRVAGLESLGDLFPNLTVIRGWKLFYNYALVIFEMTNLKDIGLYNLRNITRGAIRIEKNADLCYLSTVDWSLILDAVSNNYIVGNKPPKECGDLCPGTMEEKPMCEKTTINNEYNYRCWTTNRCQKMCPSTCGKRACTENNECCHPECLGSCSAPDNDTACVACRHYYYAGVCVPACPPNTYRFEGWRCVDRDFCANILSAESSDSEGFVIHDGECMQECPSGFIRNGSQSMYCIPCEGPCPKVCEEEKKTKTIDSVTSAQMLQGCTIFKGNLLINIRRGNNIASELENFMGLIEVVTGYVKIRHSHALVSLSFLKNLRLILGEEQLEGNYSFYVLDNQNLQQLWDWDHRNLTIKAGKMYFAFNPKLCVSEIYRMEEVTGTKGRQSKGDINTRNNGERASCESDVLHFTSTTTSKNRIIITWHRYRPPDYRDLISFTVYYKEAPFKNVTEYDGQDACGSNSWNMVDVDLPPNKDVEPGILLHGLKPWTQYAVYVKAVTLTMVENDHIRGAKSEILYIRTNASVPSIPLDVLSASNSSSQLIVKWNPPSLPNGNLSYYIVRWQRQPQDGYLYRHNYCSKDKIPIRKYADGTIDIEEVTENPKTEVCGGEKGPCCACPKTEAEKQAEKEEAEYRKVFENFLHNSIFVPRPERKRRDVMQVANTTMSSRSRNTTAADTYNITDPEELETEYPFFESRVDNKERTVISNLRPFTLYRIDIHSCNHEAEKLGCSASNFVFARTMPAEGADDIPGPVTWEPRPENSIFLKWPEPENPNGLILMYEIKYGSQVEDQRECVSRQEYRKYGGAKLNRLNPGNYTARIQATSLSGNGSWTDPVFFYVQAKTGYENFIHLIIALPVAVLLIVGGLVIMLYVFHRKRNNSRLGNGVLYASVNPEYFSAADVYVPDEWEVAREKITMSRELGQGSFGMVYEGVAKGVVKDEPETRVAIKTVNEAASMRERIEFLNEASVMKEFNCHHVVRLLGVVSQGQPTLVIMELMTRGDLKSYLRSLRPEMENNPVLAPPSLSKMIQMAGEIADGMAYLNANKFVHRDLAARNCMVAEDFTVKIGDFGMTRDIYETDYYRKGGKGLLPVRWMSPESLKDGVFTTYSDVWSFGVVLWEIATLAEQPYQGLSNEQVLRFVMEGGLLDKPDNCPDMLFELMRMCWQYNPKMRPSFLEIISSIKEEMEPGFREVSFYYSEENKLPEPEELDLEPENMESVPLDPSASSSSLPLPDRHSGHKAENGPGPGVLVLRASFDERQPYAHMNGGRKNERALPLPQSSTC

Key:
Type in all cases: biochemical
[1] = target: Lyn kinase (Homo sapiens (Human), UniProt P07948); experiment: Kinase selectivity assay (CEREP HTRF panel); conditions: read-out: % Inhibition @ 10 uM, Lyn
[2] = target: Abl (Homo sapiens (Human), UniProt P00519); experiment: Kinase selectivity assay (CEREP HTRF panel); conditions: read-out: % Inhibition @ 10 uM, Abl
[3] = target: p38alpha kinase (Homo sapiens (Human), UniProt Q16539); experiment: Kinase selectivity assay (CEREP HTRF panel); conditions: read-out: % Inhibition @ 10 uM, p38alpha
[4] = target: Lck (Homo sapiens (Human), UniProt P06239); experiment: Kinase selectivity assay (CEREP HTRF panel); conditions: read-out: % Inhibition @ 10 uM, Lck
[5] = target: PKCbeta 1 (Homo sapiens (Human), UniProt P05771); experiment: Kinase selectivity assay (CEREP HTRF panel); conditions: read-out: % Inhibition @ 10 uM, PKCbeta 1
[6] = target: JNK 2 (Homo sapiens (Human), UniProt P45984); experiment: Kinase selectivity assay (CEREP HTRF panel); conditions: read-out: % Inhibition @ 10 uM, JNK 2
[7] = target: Src kinase (Homo sapiens (Human), UniProt P12931); experiment: Kinase selectivity assay (CEREP HTRF panel); conditions: read-out: % Inhibition @ 10 uM, Src
[8] = target: TRKA (Homo sapiens (Human), UniProt P04629); experiment: Kinase selectivity assay (CEREP HTRF panel); conditions: read-out: % Inhibition @ 10 uM, TRKA
[9] = target: FLT-1 kinase (VEGFR1) (Homo sapiens (Human), UniProt P17948); experiment: Kinase selectivity assay (CEREP HTRF panel); conditions: read-out: % Inhibition @ 10 uM, FLT-1 (VEGFR1)
[10] = target: IGF1R kinase (Homo sapiens (Human), UniProt P08069); experiment: Kinase selectivity assay (CEREP HTRF panel); conditions: read-out: % Inhibition @ 10 uM, IGF1R
[11] = target: human PLK4 (Homo sapiens (Human), UniProt O00444); experiment: PLK4 inhibition assay (indirect ELISA)

COc1ccc2c(c1)[C@]1(C[C@H]1c1ccc3c(-c4ccc(N5CCN(C)CC5)nc4)n[nH]c3c1)C(=O)N2 (relative stereo) [Example A13, (1R*,2S*)-5′-Methoxy-2-(3-(6-(4-methylpiperazin-1-yl)pyridin-3-yl)-1H-indazol-6-yl)spiro[cyclopropane-1,3′-indolin]-2′-one]
inhibition at 10 µM [1]: 15% | inhibition at 10 µM [2]: 91% | inhibition at 10 µM [3]: -28% | inhibition at 10 µM [4]: 71% | inhibition at 10 µM [5]: -2% | inhibition at 10 µM [6]: 11% | inhibition at 10 µM [7]: 13% | inhibition at 10 µM [8]: 93% | inhibition at 10 µM [9]: 22% | inhibition at 10 µM [10]: -3%

COc1ccc2c(c1)[C@]1(C[C@H]1c1ccc3c(-c4ccc(C5CCNCC5)cc4)n[nH]c3c1)C(=O)N2 (relative stereo) [Example A122, (1R*,2S*)-5′-methoxy-2-(3-(4-(piperidin-4-yl)phenyl)-1H-indazol-6-yl)spiro[cyclopropane-1,3′-indolin]-2′-one 2,2,2-trifluoroacetate]
IC50 ([11]; read-out: PLK4 IC50 Ranges): < 100 nM

COc1ccc2c(c1)[C@]1(C[C@H]1c1ccc3c(-c4ccc(N5CCN(C(C)C)CC5)cc4)n[nH]c3c1)C(=O)N2 (relative stereo) [Example A96, (1R*,2S*)-2-(3-(4-(4-isopropylpiperazin-1-yl)phenyl)-1H-indazol-6-yl)-5′-methoxyspiro[cyclopropane-1,3′-indolin]-2′-one]
IC50 [11]: < 100 nM
